These results are taken from publication PMC3439374, “Co-Crystalization and In Vitro Biological Characterization of 5-Aryl-4-(5-Substituted-2-4-Dihydroxyphenyl)-1,2,3-Thiadiazole Hsp90 Inhibitors” (PLoS ONE, 2012).

By UniProt entry, the sequences of proteins in these tests, tags left out. Residues count along the entry.
UniProt P08238, 2-724: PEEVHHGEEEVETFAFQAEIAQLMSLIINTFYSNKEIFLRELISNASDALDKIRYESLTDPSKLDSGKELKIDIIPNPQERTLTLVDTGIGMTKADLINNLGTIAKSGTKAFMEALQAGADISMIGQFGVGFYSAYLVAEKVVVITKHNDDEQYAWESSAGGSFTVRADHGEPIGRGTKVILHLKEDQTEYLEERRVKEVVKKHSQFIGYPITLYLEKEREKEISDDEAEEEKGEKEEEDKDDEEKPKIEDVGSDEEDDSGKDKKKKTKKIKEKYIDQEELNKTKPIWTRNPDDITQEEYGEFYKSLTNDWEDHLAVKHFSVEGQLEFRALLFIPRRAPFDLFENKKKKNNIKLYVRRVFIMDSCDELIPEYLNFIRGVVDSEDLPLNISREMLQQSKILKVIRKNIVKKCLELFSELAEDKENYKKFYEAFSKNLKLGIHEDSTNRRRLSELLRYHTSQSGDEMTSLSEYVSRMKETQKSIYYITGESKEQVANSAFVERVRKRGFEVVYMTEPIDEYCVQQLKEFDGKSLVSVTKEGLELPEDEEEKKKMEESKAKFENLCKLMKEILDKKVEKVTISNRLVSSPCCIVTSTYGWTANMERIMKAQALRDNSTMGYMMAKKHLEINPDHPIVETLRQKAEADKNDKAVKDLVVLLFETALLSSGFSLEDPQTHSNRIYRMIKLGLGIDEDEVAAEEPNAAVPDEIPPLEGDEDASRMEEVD

By IC50 is commonly meant the midpoint of a concentration-inhibition curve. A higher IC50 goes with a need for much substance.

This test has as its target T1, Hsp90β (Homo sapiens, UniProt P08238).
T1 construct: gene HSP90AB1
The experiment in a line: biochemical.
In turn, `COc1ccc(-c2snnc2-c2cc(Cl)c(O)cc2O)cc1` [ICPD 26] had an IC50 of 26.6 ± 4.4 nM.

The compound `COc1ccc(-c2snnc2-c2cc(Cl)c(O)cc2O)cc1OC` [ICPD 34] came in with an IC50 of 51.9 ± 6.4 nM.

`CCOc1ccc(-c2snnc2-c2cc(Cl)c(O)cc2O)cc1` [ICPD 47] had an IC50 of 14.6 ± 1.6 nM.
